Patent US10562878B2, “Cycloalkylamines as monoamine reuptake inhibitors” (Sunovion Pharmaceuticals Inc., priority 2006, dated 2020)
pIC50: −log10 of the molar value. Counter-ions that a name gives are not always drawn.

Chains of the proteins cited; added tags and fusions are not shown.
UniProt P31645, whole entry: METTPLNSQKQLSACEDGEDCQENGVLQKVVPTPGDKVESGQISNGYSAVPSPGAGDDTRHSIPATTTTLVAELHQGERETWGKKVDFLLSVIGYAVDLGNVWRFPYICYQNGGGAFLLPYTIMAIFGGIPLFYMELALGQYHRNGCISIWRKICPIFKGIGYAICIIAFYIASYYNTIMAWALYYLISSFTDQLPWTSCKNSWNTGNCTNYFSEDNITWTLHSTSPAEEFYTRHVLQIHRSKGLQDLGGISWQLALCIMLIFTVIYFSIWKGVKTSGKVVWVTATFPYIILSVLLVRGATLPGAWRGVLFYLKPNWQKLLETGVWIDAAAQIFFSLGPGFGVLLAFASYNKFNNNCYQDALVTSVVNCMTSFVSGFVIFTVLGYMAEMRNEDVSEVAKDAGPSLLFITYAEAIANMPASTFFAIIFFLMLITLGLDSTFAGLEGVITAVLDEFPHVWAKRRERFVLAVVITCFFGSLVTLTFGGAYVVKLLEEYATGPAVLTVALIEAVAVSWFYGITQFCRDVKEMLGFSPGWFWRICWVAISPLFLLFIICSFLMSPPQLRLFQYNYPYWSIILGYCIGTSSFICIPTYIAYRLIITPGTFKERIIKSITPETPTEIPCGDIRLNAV
UniProt Q01959, whole entry: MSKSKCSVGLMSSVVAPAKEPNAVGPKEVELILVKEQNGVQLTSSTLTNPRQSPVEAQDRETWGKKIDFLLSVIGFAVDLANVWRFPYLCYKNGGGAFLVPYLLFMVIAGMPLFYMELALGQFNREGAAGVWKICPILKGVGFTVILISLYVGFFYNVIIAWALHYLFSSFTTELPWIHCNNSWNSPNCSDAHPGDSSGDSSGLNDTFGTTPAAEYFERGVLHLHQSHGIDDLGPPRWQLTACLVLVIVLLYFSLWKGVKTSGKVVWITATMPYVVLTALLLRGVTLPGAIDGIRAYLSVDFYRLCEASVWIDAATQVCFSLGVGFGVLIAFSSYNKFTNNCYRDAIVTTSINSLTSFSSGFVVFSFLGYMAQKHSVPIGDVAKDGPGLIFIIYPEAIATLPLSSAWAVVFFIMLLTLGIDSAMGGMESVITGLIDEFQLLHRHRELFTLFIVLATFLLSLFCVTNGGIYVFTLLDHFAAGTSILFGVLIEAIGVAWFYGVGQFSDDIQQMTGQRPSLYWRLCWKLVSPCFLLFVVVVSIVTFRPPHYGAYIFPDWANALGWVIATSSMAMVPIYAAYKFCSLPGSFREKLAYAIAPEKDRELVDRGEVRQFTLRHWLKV
UniProt P23975, whole entry: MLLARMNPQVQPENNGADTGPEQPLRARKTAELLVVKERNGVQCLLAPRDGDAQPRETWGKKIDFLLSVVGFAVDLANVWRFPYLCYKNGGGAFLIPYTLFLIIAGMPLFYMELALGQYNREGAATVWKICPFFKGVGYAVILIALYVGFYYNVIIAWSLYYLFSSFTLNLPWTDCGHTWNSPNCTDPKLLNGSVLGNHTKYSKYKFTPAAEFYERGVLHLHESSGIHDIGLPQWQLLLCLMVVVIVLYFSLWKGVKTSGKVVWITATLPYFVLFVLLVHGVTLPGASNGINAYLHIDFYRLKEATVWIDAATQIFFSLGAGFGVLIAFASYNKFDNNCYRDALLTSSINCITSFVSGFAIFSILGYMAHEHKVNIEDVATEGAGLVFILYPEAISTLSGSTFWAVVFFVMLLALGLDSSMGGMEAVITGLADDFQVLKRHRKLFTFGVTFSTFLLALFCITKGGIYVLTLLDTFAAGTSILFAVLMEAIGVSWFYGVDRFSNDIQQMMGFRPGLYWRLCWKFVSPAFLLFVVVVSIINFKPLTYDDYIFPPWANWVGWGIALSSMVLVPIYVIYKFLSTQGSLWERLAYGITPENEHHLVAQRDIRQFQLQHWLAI

These compounds were tested against human serotonin transporter (Homo sapiens (Human), UniProt P31645) (assay: Serotonin functional uptake assay, recombinant human transporter in HEK-293 cells). Conditions: Human serotonin transporter uptake; read-out: hSERT IC50.
Type: cell-based
In the case of “cis-1-(1-(3,4-dichlorophenyl)-3-methoxycyclohexyl)-N-methylmethanamine [Compound 200]”, the pIC50 was 5.69.
Work on “cis-1-(1-(3,4-dichlorophenyl)-3-methoxycyclohexyl)-N-methylmethanamine [Compound 196]” yielded a pIC50 of 5.84.

Same assay, conditions: read-out: hSERT IC50
`CNC[C@]1(c2ccc(Cl)c(Cl)c2)CCC[C@](C)(O)C1` (relative stereo) [Compound 198, cis-3-(3,4-dichlorophenyl)-1-methyl-3-((methylamino)methyl)cyclohexanol] was tested, and the pIC50 was 5.63.

These compounds were tested against human dopamine transporter (Homo sapiens (Human), UniProt Q01959) (assay: Dopamine functional uptake assay, recombinant human transporter in CHO-K1 or HEK293 cells). Conditions: Human dopamine transporter uptake; read-out: hDAT IC50.
Type: cell-based
For “cis-1-(1-(3,4-dichlorophenyl)-3-methoxycyclohexyl)-N-methylmethanamine [Compound 200]”, the pIC50 was 5.96.
In the case of “cis-1-(1-(3,4-dichlorophenyl)-3-methoxycyclohexyl)-N-methylmethanamine [Compound 196]”, the pIC50 was 6.04.
Work on “cis-3-(3,4-dichlorophenyl)-3-((dimethylamino)methyl)-1-methylcyclohexanol [Compound 199]” yielded a pIC50 of 6.34.

Same assay, conditions: read-out: hDAT IC50
Work on `CC(C)C(N)C1(c2ccc(Cl)cc2)CCCCC1` (racemic) [Compound 14, 1-(1-(4-chlorophenyl)cyclohexyl)-2-methylpropan-1-amine] yielded a pIC50 of 7.34.

The compounds below were run against human norepinephrine transporter (Homo sapiens (Human), UniProt P23975) (assay: Norepinephrine functional uptake assay, recombinant human transporter in HEK293 or MDCK cells). Conditions: hNET IC50.
Type: cell-based
Compound `C[C@@H]1CCCC[C@@]1(CN(C)C)c1ccc(Cl)c(Cl)c1` (racemic) [Compound 175, (±) cis-1-(1-(3,4-dichlorophenyl)-2-methylcyclohexyl)-N,N-dimethylmethanamine hydrochloride] has a pIC50 of 7.82.

Same assay, conditions: read-out: hNET IC50
`CNCC1(c2ccc(Cl)c(Cl)c2)CCCC(F)(F)C1` (single isomer, unassigned) [205 E2, 1-(1-(3,4-dichlorophenyl)-3,3-difluorocyclohexyl)-N-methylmethanamine] gave a pIC50 of 6.49.
Work on `CNCC1(c2ccc(Cl)c(Cl)c2)CCCC1` [Compound 88, (1-(3,4-dichlorophenyl)cyclopentyl)-N-methylmethanamine] yielded a pIC50 of 6.77.
`CC(C)C(N)C1(c2ccc(Cl)cc2)CCCCC1` (racemic) [Compound 14, 1-(1-(4-chlorophenyl)cyclohexyl)-2-methylpropan-1-amine] gave a pIC50 of 6.59.
`CNCC1(c2ccc(Cl)c(Cl)c2)CCCC(F)(F)C1` (single isomer, unassigned) [205 E1, 1-(1-(3,4-dichlorophenyl)-3,3-difluorocyclohexyl)-N-methylmethanamine] was tested, and the pIC50 was 6.00.
`CSc1ccc(C2(CN(C)C)CCCCC2)cc1` [Compound 52, N,N-dimethyl-1-(1-(4-(methylthio)phenyl)cyclohexyl)methanamine] was tested, and the pIC50 was 5.97.
`CCC(NC)C1(c2ccc(Cl)c(Cl)c2)CCCCC1` (single isomer, unassigned) [62 E2, 1-(1-(3,4-dichlorophenyl)cyclohexyl)-N-methylpropan-1-amine] gave a pIC50 of 6.92.
`CC(C)CC(N)C1(c2ccc(Cl)cc2)CCCCC1` (single isomer, unassigned) [21 E1, 1-(1-(4-chlorophenyl)cyclohexyl)-3-methylbutan-1-amine] showed a pIC50 of 5.12.
For `CC(C)CC(N)C1(c2ccc(Cl)cc2)CCCCC1` (stereo not shown) [Compound 21, 1-(1-(4-chlorophenyl)cyclohexyl)-3-methylbutan-1-amine], the pIC50 was 5.14.
`CN(C)CC1(c2ccc(Cl)c(Cl)c2)CCCC(F)(F)C1` (single isomer, unassigned) [206 E1, 1-(1-(3,4-dichlorophenyl)-3,3-difluorocyclohexyl)-N,N-dimethylmethanamine] was tested, and the pIC50 was 6.92.
Work on `CC(C)CC(N)C1(c2ccc(Cl)cc2)CCCCC1` (single isomer, unassigned) [21 E2, 1-(1-(4-chlorophenyl)cyclohexyl)-3-methylbutan-1-amine] yielded a pIC50 of 5.22.
In the case of `CCC(NC)C1(c2ccc(Cl)c(Cl)c2)CCCCC1` (single isomer, unassigned) [62 E1, 1-(1-(3,4-dichlorophenyl)cyclohexyl)-N-methylpropan-1-amine], the pIC50 was 6.38.
